Ab-91 heavy chain CDR variants: yeast mating affinities

Binding partner: SARS-CoV-2 spike HR2 peptide, sequence PDVDLGDISGINAS.

The variants keep the light chain, the linker and the frameworks of Ab-91 (scFv order VL, a 15-residue (Gly4Ser)3 linker, VH).
VL: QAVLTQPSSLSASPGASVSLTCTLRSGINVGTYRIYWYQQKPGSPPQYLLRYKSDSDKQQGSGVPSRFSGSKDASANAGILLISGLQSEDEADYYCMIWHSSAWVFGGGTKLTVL
VH: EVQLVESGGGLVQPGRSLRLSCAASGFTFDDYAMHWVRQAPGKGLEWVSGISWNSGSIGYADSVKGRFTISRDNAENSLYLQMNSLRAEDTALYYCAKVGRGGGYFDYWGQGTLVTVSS

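The library (AAYL51) carries one to three amino acid substitutions per variant, with no insertions or deletions. AlphaSeq pools MATa yeast showing the antibodies with MATalpha yeast showing the peptide. Binding brings cells together so that they mate, and sequencing counts the barcode pairs among the diploids. Each replicate has its own calibration line, from reference interactions of the BCL2 family. Each pool was mated in three replicate cultures.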

Variants are written as CDR1, CDR2 and CDR3 of the heavy chain (limits as in the source). Parent: GFTFDDYAMH, GISWNSGSIGYADSVK, VGRGGGYFDY.
Numbers give log10(Kd / nM), so 0 is 1 nM and 3 is 1 µM. Smaller is tighter.
Where no diploid with the target was found in that replicate, the entry reads "nd": below detection, most likely a poor binder, though not proof of it.
Empty control strains, which show no peptide, gave a signal in 21% of pairings with library AAYL51; the median was 4.54 and 95% of these signals were weaker than 3.26. No background was subtracted. The control count says in how many pairings with the empty strains this scFv gave a signal, with their mean in brackets.

{"CDR-H1": "GFWFDDYAMH", "CDR-H2": "GISWNSGSIGYADSVK", "CDR-H3": "VGRGGGYFDY", "replicates, log10 nM": "1.12 / 1.12 / 0.78", "empty controls": "5/9 (4.73)"}
{"CDR-H1": "GCTFDDYAMF", "CDR-H2": "GISWNSGSIGYADSVK", "CDR-H3": "VGRGWGYFDY", "replicates, log10 nM": "nd / nd / nd", "empty controls": "0/9"}
{"CDR-H1": "GFTFDDYAMH", "CDR-H2": "GISWNSGSTGYADSVK", "CDR-H3": "VVRSGGYFDY", "replicates, log10 nM": "nd / nd / nd", "empty controls": "4/9 (3.97)"}
{"CDR-H1": "GFTFDDYAHH", "CDR-H2": "GISWNSGSHGYADSVK", "CDR-H3": "VGRGGGMFDY", "replicates, log10 nM": "4.95 / nd / nd", "empty controls": "2/9 (4.77)"}
{"CDR-H1": "GFTFDDYAMH", "CDR-H2": "GISWNSGSIKYADSVK", "CDR-H3": "VGRGGGYFCY", "replicates, log10 nM": "nd / nd / nd", "empty controls": "0/9"}
{"CDR-H1": "GFTFDDYAMH", "CDR-H2": "GISWNSGSIGYADSVV", "CDR-H3": "VGHGGGEFDY", "replicates, log10 nM": "5.04 / 5.55 / nd", "empty controls": "8/9 (5.41)"}
{"CDR-H1": "GFTFDDYAMH", "CDR-H2": "GISWNSVSIGYALSVK", "CDR-H3": "VGRGGGYFDY", "replicates, log10 nM": "nd / nd / nd", "empty controls": "1/9 (2.89)"}
{"CDR-H1": "GFTFDDYAMH", "CDR-H2": "GISWNGGSGGYADSVK", "CDR-H3": "NGRGGGYFDY", "replicates, log10 nM": "5.06 / nd / nd", "empty controls": "3/9 (5.03)"}
{"CDR-H1": "GFTFDDYAMH", "CDR-H2": "GISWNSGSIGYADSVK", "CDR-H3": "VGRGIWYFDT", "replicates, log10 nM": "nd / 4.61 / 4.52", "empty controls": "1/9 (5.09)"}
{"CDR-H1": "GFTFDDEAGH", "CDR-H2": "GISWNSGSIGYADSVK", "CDR-H3": "VGRGGGYFNY", "replicates, log10 nM": "nd / 5.56 / nd", "empty controls": "2/9 (4.40)"}
{"CDR-H1": "GFTFDDYAMH", "CDR-H2": "GISWWSGSIGYADSVK", "CDR-H3": "RGRGGMYFDY", "replicates, log10 nM": "5.02 / 4.86 / 4.11", "empty controls": "2/9 (5.04)"}
{"CDR-H1": "GFTFDDYAMH", "CDR-H2": "GISWNSGSIGYNDSVK", "CDR-H3": "NGRGGGYFDY", "replicates, log10 nM": "3.18 / 3.03 / 2.44", "empty controls": "0/9"}
{"CDR-H1": "GFTFDDYAMH", "CDR-H2": "IISWNSGSGGYADSVK", "CDR-H3": "VGRGEGYFDY", "replicates, log10 nM": "nd / nd / nd", "empty controls": "0/9"}
{"CDR-H1": "HFTFDDYAMH", "CDR-H2": "GISWNSGSIGYANSHK", "CDR-H3": "VGRGGGYFDY", "replicates, log10 nM": "nd / nd / nd", "empty controls": "0/9"}
{"CDR-H1": "GITFDDYAFH", "CDR-H2": "GISWNSGSIGYADYVK", "CDR-H3": "VGRGGGYFDY", "replicates, log10 nM": "3.22 / 2.53 / 0.99", "empty controls": "0/9"}
{"CDR-H1": "GFTFDDYAMA", "CDR-H2": "GISWNSGSIGYAHSVK", "CDR-H3": "VGRGGGYFDH", "replicates, log10 nM": "nd / nd / nd", "empty controls": "2/9 (4.22)"}
{"CDR-H1": "SFTFDDYAMH", "CDR-H2": "GISWNSGSIGYADSVR", "CDR-H3": "VGRGGGYFGY", "replicates, log10 nM": "4.38 / 4.35 / nd", "empty controls": "4/9 (4.65)"}
{"CDR-H1": "GFTFDDYAMH", "CDR-H2": "GISYNSGSIGYADSMK", "CDR-H3": "VLRGGGYFDY", "replicates, log10 nM": "nd / nd / 4.78", "empty controls": "3/9 (5.28)"}
{"CDR-H1": "GFTPDLYAMH", "CDR-H2": "GISWNSGSIGYADSVK", "CDR-H3": "VGRGGGYFTY", "replicates, log10 nM": "nd / nd / nd", "empty controls": "2/9 (3.53)"}
{"CDR-H1": "GFEFDDYAMH", "CDR-H2": "GISWNSGSIGYADSVK", "CDR-H3": "WGRGGNYFDY", "replicates, log10 nM": "nd / nd / nd", "empty controls": "1/9 (3.63)"}
{"CDR-H1": "GFTFDDYAMH", "CDR-H2": "GISWGSGTIGYDDSVK", "CDR-H3": "VGRGGGYFDY", "replicates, log10 nM": "4.07 / 4.16 / nd", "empty controls": "3/9 (3.97)"}
{"CDR-H1": "GFTFDDYAWH", "CDR-H2": "GISWNRGSGGYADSVK", "CDR-H3": "VGRGGGYFDY", "replicates, log10 nM": "nd / nd / nd", "empty controls": "0/9"}
{"CDR-H1": "FFTFDDYAMH", "CDR-H2": "GISWNEGSICYADSVK", "CDR-H3": "VGRGGGYFDY", "replicates, log10 nM": "3.01 / nd / nd", "empty controls": "4/9 (3.55)"}
{"CDR-H1": "GFTFDDYAMH", "CDR-H2": "GISWNSGSIGYADSPT", "CDR-H3": "VGRGGGYFDL", "replicates, log10 nM": "3.88 / 3.77 / nd", "empty controls": "2/9 (5.04)"}
{"CDR-H1": "GFTFDDYFMH", "CDR-H2": "GISWNSGSIGYADSVK", "CDR-H3": "VGSGGGRFDY", "replicates, log10 nM": "nd / nd / nd", "empty controls": "1/9 (5.18)"}
{"CDR-H1": "GFTFDDYAMH", "CDR-H2": "GISWNSGSIGYADSVY", "CDR-H3": "VGRKGEYFDY", "replicates, log10 nM": "3.37 / nd / nd", "empty controls": "2/9 (3.67)"}
{"CDR-H1": "GFTFDDYAVH", "CDR-H2": "AISWNSGSIGYADSVK", "CDR-H3": "VGRPGGYFDY", "replicates, log10 nM": "nd / nd / nd", "empty controls": "0/9"}
{"CDR-H1": "GFTFDDYAMH", "CDR-H2": "GICWNSGSILYADSPK", "CDR-H3": "VGRGGGYFDY", "replicates, log10 nM": "nd / nd / nd", "empty controls": "0/9"}
{"CDR-H1": "GFTFDDYAMH", "CDR-H2": "QISWMSGSIGYHDSVK", "CDR-H3": "VGRGGGYFDY", "replicates, log10 nM": "4.38 / nd / nd", "empty controls": "5/9 (4.44)"}
{"CDR-H1": "GFTFDDYAMH", "CDR-H2": "GISWNSGSIGYADSGK", "CDR-H3": "VWRGGGYFDY", "replicates, log10 nM": "2.58 / nd / nd", "empty controls": "0/9"}

Extract of 4 entries:

CDR-H1	CDR-H2	CDR-H3	replicates, log10 nM	empty controls
GFTFDDYAMH	GISWNSGSIGYADSPT	VGRGGGYFDL	3.88 / 3.77 / nd	2/9 (5.04)
GFTFDDYAMH	GISWNGGSGGYADSVK	NGRGGGYFDY	5.06 / nd / nd	3/9 (5.03)
GITFDDYAFH	GISWNSGSIGYADYVK	VGRGGGYFDY	3.22 / 2.53 / 0.99	0/9
GFTFDDYAMH	GISWWSGSIGYADSVK	RGRGGMYFDY	5.02 / 4.86 / 4.11	2/9 (5.04)

Data: MIT Lincoln Laboratory AlphaSeq set, Engelhart et al. 2022, doi:10.1038/s41597-022-01779-4, as distributed in FLAb.